Measured values from patent US11247972B2, “Compositions and methods for treating toxoplasmosis, cryptosporidiosis, and other apicomplexan protozoan related diseases” (University of Washington through its Center for …, priority 2010, dated 2022).

Tested on: P. falciparum
Experiment: P. falciparum NF54 gametocyte exflagellation with compound in blood
Type: cell-based, Plasmodium falciparum
Conditions: 0.3 μM, repeat experiment

CCOc1ccc2cc(-c3nn(CC4CCNCC4)c4ncnc(N)c34)ccc2c1 [Compound 29, 3-(6-ethoxynaphthalen-2-yl)-1-(piperidin-4-ylmethyl)-1H-pyrazolo[3,4-d]pyrimidin-4-amine]
suppression of exflagellation events: > 90%
